Values of other authors as cited in paper PMC10788894 (Journal of Medicinal Chemistry, 2023).

Tested on: SOS1 over SOS2
Settings: reported

| Compound | selectivity for SOS1 over SOS2 |
| --- | --- |
| Cc1c(C#N)cccc1[C@@H](C)Nc1nnc(C)c2cnc(N3CCOCC3)cc12 [MRTX0902] | highly selective for SOS1 over SOS2 |
| CNCc1ccccc1-c1csc([C@@H](C)Nc2nc(C)nc3cc(OC)c(OC)cc23)c1 [BAY-293] | highly selective for SOS1 over SOS2 |
